According to PubChem BioAssay (NCATS):
Where “and” joins values, the source holds several entries; their conditions need not be identical. Equal entries are not always repeated. The entries are a selection whose mix differs from that of the whole data set. Inconclusive results are not listed. Calls of active or inactive are those of the source. Unless noted, calls follow the shape of the dose curve; as a rule, active = well fitted curve in the direction sought with a large enough effect; inconclusive = small, poorly fitted or top-dose-only effect, or another doubt; inactive = no such curve, though single readings can be large; an effect the other way counts as inactive or inconclusive.

Sequences of proteins named here, by UniProt entry; tags and fusion partners are left off. A change or cut given only in a name is not applied to a line headed by its entry.
UniProt O89049, whole entry, looked up: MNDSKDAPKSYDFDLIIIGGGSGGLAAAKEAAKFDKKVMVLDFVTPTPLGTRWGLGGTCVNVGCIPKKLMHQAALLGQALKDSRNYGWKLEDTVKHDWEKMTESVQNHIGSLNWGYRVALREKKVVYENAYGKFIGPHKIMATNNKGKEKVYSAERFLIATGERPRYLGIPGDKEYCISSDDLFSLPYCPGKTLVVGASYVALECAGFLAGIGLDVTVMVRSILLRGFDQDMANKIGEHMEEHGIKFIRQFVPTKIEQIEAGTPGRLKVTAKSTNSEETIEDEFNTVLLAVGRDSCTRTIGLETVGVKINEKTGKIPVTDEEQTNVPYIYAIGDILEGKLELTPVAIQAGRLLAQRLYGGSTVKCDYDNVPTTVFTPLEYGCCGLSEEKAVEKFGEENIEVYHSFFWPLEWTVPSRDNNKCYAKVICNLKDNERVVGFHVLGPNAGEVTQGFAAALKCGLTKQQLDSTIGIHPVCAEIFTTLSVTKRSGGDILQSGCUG
UniProt P39748, whole entry, looked up: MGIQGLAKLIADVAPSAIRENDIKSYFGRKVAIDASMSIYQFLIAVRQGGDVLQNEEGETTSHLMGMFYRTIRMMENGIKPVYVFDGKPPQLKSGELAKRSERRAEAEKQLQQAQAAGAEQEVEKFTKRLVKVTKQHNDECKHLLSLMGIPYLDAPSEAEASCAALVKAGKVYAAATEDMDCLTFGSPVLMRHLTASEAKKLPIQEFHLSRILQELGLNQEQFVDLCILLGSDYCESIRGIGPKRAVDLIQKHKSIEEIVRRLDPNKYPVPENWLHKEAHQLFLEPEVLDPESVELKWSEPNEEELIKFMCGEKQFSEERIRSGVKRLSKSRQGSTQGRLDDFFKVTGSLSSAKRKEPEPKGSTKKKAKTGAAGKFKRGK
UniProt P83916, whole entry, looked up: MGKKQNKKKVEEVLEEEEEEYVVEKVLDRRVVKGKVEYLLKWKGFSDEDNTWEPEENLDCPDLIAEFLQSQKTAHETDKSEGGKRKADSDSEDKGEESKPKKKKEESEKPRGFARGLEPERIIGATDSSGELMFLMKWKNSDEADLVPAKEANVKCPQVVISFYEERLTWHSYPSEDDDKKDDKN
UniProt Q6LX38: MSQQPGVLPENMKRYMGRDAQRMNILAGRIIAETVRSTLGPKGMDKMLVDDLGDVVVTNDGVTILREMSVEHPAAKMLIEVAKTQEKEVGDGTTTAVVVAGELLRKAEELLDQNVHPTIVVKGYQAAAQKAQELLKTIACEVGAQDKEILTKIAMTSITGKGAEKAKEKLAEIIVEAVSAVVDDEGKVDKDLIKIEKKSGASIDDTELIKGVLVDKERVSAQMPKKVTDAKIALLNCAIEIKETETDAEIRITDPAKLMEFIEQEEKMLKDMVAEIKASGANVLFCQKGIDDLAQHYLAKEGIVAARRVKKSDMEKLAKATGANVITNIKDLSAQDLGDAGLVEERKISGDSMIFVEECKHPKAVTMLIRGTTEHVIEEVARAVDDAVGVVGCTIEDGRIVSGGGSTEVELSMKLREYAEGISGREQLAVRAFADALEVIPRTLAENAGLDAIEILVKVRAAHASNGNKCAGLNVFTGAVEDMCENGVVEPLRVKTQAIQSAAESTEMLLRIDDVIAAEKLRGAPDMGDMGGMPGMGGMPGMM
UniProt P21728, whole entry, looked up: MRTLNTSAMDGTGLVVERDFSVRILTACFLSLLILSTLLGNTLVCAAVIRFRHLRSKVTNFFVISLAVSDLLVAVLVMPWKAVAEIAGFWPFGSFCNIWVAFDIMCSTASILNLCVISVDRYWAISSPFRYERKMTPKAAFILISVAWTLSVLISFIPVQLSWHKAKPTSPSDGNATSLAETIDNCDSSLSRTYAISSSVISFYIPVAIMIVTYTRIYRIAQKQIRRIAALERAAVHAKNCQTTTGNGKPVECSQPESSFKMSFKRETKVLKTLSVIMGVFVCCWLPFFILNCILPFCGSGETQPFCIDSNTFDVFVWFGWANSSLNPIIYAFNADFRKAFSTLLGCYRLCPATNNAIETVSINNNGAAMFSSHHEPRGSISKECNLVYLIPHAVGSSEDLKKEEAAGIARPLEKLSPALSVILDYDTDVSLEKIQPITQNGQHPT
UniProt Q96QE3: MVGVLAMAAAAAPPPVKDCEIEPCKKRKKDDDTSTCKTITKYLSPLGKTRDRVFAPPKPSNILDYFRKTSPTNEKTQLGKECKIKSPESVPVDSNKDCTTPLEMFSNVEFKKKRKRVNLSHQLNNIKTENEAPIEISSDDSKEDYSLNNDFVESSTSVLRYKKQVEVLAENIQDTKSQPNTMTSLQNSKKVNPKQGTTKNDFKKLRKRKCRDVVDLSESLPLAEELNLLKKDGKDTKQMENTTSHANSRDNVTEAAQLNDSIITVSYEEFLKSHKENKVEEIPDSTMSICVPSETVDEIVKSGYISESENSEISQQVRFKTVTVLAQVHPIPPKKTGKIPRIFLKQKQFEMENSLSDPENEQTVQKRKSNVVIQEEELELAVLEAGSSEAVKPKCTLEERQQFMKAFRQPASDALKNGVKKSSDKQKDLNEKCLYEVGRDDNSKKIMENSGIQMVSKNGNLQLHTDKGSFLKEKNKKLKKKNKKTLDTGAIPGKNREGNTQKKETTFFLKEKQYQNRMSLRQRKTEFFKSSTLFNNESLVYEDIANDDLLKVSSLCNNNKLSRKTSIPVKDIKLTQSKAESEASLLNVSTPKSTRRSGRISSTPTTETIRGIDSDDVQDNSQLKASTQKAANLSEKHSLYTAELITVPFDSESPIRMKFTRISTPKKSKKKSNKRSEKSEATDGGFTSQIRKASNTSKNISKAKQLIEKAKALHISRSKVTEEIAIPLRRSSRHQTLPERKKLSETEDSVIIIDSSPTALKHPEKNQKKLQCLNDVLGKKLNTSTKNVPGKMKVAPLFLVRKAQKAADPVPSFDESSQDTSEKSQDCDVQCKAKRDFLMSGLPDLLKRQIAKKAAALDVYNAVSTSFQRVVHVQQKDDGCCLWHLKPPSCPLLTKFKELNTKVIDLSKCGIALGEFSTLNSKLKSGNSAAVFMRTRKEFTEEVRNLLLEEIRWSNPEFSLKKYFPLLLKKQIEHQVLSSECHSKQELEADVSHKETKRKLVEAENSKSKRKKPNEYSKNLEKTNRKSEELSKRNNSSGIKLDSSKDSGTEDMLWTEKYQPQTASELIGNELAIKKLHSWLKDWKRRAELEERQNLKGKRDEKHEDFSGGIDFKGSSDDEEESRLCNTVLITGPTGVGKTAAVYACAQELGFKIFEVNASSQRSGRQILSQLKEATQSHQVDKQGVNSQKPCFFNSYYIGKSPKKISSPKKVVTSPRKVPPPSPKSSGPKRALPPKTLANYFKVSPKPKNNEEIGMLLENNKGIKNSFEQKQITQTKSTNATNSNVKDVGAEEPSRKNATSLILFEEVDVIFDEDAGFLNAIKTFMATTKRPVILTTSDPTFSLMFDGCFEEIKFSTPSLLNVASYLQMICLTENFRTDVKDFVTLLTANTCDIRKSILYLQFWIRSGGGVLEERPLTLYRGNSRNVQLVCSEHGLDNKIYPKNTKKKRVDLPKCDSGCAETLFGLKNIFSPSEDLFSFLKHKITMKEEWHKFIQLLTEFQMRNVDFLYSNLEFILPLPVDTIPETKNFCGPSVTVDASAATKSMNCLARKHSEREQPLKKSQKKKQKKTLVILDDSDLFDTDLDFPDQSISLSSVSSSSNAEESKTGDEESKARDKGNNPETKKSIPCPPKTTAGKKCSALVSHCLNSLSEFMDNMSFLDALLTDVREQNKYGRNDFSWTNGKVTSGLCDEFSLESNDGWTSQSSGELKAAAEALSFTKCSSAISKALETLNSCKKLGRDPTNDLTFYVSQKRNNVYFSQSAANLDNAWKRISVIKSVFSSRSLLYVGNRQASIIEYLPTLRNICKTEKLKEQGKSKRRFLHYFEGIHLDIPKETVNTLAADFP
UniProt P34981: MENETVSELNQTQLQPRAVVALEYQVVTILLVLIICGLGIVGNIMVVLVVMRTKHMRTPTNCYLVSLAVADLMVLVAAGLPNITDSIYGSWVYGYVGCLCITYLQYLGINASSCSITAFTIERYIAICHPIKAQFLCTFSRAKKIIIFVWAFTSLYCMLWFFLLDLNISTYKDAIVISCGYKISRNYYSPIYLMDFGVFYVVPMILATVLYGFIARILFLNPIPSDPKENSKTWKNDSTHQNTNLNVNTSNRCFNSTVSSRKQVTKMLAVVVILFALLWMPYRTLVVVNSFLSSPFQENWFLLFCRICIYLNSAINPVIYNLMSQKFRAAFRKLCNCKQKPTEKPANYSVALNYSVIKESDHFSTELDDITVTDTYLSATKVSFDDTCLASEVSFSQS
UniProt P51570: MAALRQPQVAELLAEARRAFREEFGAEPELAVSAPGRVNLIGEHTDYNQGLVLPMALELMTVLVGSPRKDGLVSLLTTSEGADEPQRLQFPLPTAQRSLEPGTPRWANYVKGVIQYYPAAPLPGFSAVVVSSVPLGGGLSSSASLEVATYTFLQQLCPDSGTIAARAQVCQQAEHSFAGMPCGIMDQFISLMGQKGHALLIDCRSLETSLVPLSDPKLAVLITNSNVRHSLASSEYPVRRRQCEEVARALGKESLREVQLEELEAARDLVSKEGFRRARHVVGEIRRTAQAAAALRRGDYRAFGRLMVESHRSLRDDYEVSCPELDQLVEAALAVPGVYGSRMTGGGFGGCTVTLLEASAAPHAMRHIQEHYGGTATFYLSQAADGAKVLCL
UniProt Q13526, whole entry, looked up: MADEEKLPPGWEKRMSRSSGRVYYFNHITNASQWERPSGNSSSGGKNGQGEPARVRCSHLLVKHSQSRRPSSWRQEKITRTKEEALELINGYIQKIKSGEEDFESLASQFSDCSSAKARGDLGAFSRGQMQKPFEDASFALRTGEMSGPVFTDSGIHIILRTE

Experiments:
[1] = molecular target: Thioredoxin reductase 1, cytoplasmic (Rattus norvegicus) (UniProt O89049); assay: qHTS Assay for Inhibitors of Mammalian Selenoprotein Thioredoxin Reductase 1 (TrxR1) (AID 488773); details: purified TrxR1 enzyme activity; at 57.1 µM (top of the series);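 also: drop in NADPH fluorescence over an 8 min run after selenite addition; % is scaled to controls: 0 for no effect and ±100 for the full control effect; nearly all actives have a fitted effect of over 40% in size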
Summary of the method: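 Steps: enzyme (90 nM) plus NADPH (400 uM final), 5 min at ~22 deg C; compound added, 15 min; selenite (400 uM final) added; fluorescence followed for 8 min. Concentration-response curves derived from the normalized delta values.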

[2] = molecular target: Flap endonuclease 1 (Homo sapiens) (UniProt P39748); assay: qHTS Validation Assay for the Inhibitors of Human Flap endonuclease 1 (FEN1) (AID 488816); details: FEN1 nuclease activity, fluorogenic DNA substrate; at 57.1 µM (top of the series); also: % is scaled to controls: 0 for no effect and ±100 for the full control effect
Summary of the method: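 Readings taken at 0 and 15 min after starting the reaction with 50 nM (final) substrate supplied the signal. Compounds had first sat with 10 nM FEN1 reagent for 15 min at room temperature. Values come from Hill-equation concentration-response fits.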

[3] = molecular target: Chromobox protein homolog 1 (Homo sapiens) (UniProt P83916); assay: qHTS Validation Assay for Inhibitors of HP1-beta Chromodomain Interactions with Methylated Histone Tails (AID 488953); details: HP1-beta chromodomain / methylated histone peptide binding assay; at 114 µM (top of the series);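 also: loss of AlphaScreen luminescence from HP1-beta binding biotinylated H3K9me3 peptide; % is scaled to controls: 0 for no effect and ±100 for the full control effect; nearly all actives have a fitted effect of over 50% in size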
[4] = molecular target: Methanococcus maripaludis chaperonin (MmCpn) (UniProt Q6LX38); assay: High-Throughput Screening for Modulators of Cytosolic Chaperonin Activity: MmCpn Primary Screen (AID 488978); details: MmCpn chaperonin refolding activity, biochemical qHTS; at 76.9 µM (top of the series);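 also: 50 nM MmCpn enzyme hydrolysing 30 µM ATP at 37 °C; 0% is about no effect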
Summary of the method: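 ADP formation read by HTRF Transcreener, 665/590 nm emission after 320 nm excitation. Enzyme: archaeal chaperonin at 50 nM final; substrate ATP 30 uM final; 10 min, 37C, after 5 min compound preincubation at RT.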

[5] = molecular target: D(1A) dopamine receptor (Homo sapiens) (UniProt P21728); assay: HTS Assay for Allosteric Agonists of the Human D1 Dopamine Receptor: Primary Screen for Agonists (AID 488981); details: D1 receptor-expressing cells, agonist cAMP readout; at 41.8 µM (top of the series); also: 0% is about no effect
Summary of the method: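 Calcium flux in an inducible, force-coupled HEK293 Trex D1 line (overnight at 30 C): agonist mode is the 180 s kinetic read after compound; potentiator mode is the following 180 s read after dopamine at EC20.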

[6] = molecular target: D(1A) dopamine receptor (Homo sapiens) (UniProt P21728); assay: HTS Assay for Allosteric Agonists of the Human D1 Dopamine Receptor: Primary Screen for Potentiators (AID 488982); details: D1 receptor cells, potentiator mode, cAMP signal; at 8.37 µM (top of the series); also: 0% is about no effect
[7] = molecular target: D(1A) dopamine receptor (Homo sapiens) (UniProt P21728); assay: HTS Assay for Allosteric Agonists of the Human D1 Dopamine Receptor: Primary Screen for Antagonists (AID 488983); details: D1 receptor cell assay, antagonist mode, qHTS titration; at 41.8 µM (top of the series);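 also: calcium flux response to an EC80 dopamine challenge measured with no-wash dye; % is scaled to controls: 0 for no effect and ±100 for the full control effect; nearly all actives have a fitted effect of over 65% in size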
[8] = Validation screen for small molecules that induce genotoxicity in human embryonic kidney (HEK293T) cells expressing luciferase-tagged ELG1 (AID 493106); details: luminescence; at 46.1 µM (top of the series); also: 0% is about no effect
Summary of the method: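 HEK293T cells expressing luciferase-tagged ELG1, 2,000 cells/well, exposed to compound 16 hr at 37 °C, 5% CO2. Luciferase read after ONE-Glo, 30 min at room temperature; increased signal indicates genetic stress.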

[9] = molecular target: ATPase family AAA domain-containing protein 5 (Homo sapiens) (UniProt Q96QE3); assay: Validation screen for small molecules that inhibit ELG1-dependent DNA repair in human embryonic kidney (HEK293T) cells expressing luciferase-tagged ELG1 (AID 493107); details: HEK293T ELG1-luciferase level, luminescence, 5-fluorouridine co-treatment, 16 h; at 46.1 µM (top of the series);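 also: cells co-treated with the DNA-damaging agent 5-fluorouridine alongside compound; % is scaled to controls: 0 for no effect and ±100 for the full control effect; inhibitors lower the ELG1-luciferase luminescence signal; nearly all actives have a fitted effect of over 70% in size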
Summary of the method: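 HEK293T cells expressing luciferase-tagged ELG1, 2,000 per well, treated with 5-fluorouridine plus compound for 16 h at 37 C. ONE-Glo luminescence after 30 min at room temperature reports ELG1 reporter level.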

[10] = molecular target: Thyrotropin-releasing hormone receptor (Homo sapiens) (UniProt P34981); assay: qHTS for Small Molecule Agonists and Allosteric Enhancers of Human TRH Receptor: Validation Screen for Agonists (AID 493127;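 active = calcium activation more than 3 SD above the typical response in the agonist read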; also: 0% is about no effect); details: TRH receptor agonist cell assay; at 2 µM; stronger effect = higher value
Summary of the method: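 TRHR cells loaded with fluo-8 calcium dye; FDSS kinetic fluorescence (Ex 480/Em 530) read at 1 s/cycle after 23 nL compound addition. Agonist-mode calcium response recorded before the 10 nM TRH (EC20) addition.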

[11] = Nrf2 qHTS screen for inhibitors: Validation (AID 493153; active = well fitted inhibition curve with a large enough effect in the main read-out, with a control signal flat, not every such curve was filed as active;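 also: A549 cells with ARE-driven firefly luciferase reporter reporting Nrf2 activity; % of control where 0% means no effect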); details: A549 ARE-Fluc reporter, luciferase luminescence, 18-24 h; at 46.1 µM (top of the series)
[12] = qHTS for Inhibitors of Cell Surface uPA Generation: Validation Assay (AID 493164); details: mouse cells, plasminogen activation; at 38.3 µM (top of the series); also: 0% is about no effect
Summary of the method: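 RAW 264.7 cells (4000/well) were plated overnight, then exposed for 18 h at 37 C, 5% CO2 to compounds in a 7-point 1:5 titration (2.45 nM–38.3 uM final). Intracellular ATP was read by ATP-Lite luminescence.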

[13] = molecular target: Galactokinase (Homo sapiens) (UniProt P51570); assay: qHTS Validation Assay for Inhibitors of Human Galactokinase (GALK) (AID 493189); details: purified human GALK enzyme activity, qHTS 7-point titration; at 57.5 µM (top of the series); also: 0% is about no effect
Summary of the method: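 Luminescence from leftover ATP (Kinase-Glo Plus, 10 min) served as read-out after a 1 h room-temperature reaction of 5 nM GALK, 100 uM galactose and 35 uM ATP at pH8.0.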

[14] = Validation screen for small molecules that induce DNA re-replication in SW480 colon adenocarcinoma cells (AID 504364); details: DNA re-replication phenotype (high-content imaging); at 46.1 µM (top of the series); also: 0% is about no effect
Summary of the method: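 SW480 cells (250/well) exposed 48 h at 37 C, 5% CO2, then Hoechst-stained 40 min. Nuclear DNA content imaged by fluorescence scanning (405 nm excitation, 500-530 nm emission); re-replication scored as increased nuclei with elevated intensity.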

[15] = molecular target: Peptidyl-prolyl cis-trans isomerase NIMA-interacting 1 (Homo sapiens) (UniProt Q13526); assay: qHTS Validation Assay to Find Inhibitors of Pin1 (AID 504536; active = well fitted inhibition curve with a large enough effect in the polarisation, with a control signal flat, not every such curve was filed as active; the % refers to the polarisation;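 also: 0% = full Pin1 enzyme wells and -100% = no-enzyme wells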); details: Pin1 fluorescence polarization peptide binding assay; at 57.5 µM (top of the series)
Summary of the method: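 Fluorescence polarization competition: compounds (titration) displace HiFluor-488-labeled Pin1-1b peptide from Pin1 (0.3 uM final) in pH 7.5 HEPES buffer with DTT, 10 min at room temperature; %Activity normalized to no-enzyme wells, curves fitted.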

CN(C(=O)Cc1ccc(Cl)c(Cl)c1)[C@H]1CCCC[C@@H]1N1CCCC1
inactive: activity change, negative = inhibition [1] 1.69% and -3.64% | activity, negative = inhibition [2] -1.75% and -2.1% | activity change, negative = inhibition [3] -9.17% and 16.8% | activity change, negative = inhibition [4] -1.04% and 0.109% | activation [5] 7.14% and 5.24% | activity, positive = potentiation [6] -29.8% and -3.67% | activity change, negative = inhibition [7] 3.5% and 6.77% | activity change, positive = ELG1 induction [8] -8.16% and -8.1% | activity change, negative = decrease [9] -2.19% and 1.6% | activation [10] 1% and 0.188% | activity change, negative = inhibition [11] 10.6% and 6.3% | activity change [12] 0.234% and -0.512% | activity change, negative = inhibition [13] 3.27% | activity (re-replication induction) [14] 11.7% and 21.4% | activity, negative = inhibition [15] 4.48% and 0.809%
